Data on two molecules can be found in ChEMBL document CHEMBL3621077, “Synthesis of hybrid anticancer agents based on kinase and histone deacetylase inhibitors” (Medchemcomm, 2014).

Amino acid sequences for entries named in this document (tags omitted). A change or cut given only in a name is not applied to a line headed by its entry.
UniProt Q13547: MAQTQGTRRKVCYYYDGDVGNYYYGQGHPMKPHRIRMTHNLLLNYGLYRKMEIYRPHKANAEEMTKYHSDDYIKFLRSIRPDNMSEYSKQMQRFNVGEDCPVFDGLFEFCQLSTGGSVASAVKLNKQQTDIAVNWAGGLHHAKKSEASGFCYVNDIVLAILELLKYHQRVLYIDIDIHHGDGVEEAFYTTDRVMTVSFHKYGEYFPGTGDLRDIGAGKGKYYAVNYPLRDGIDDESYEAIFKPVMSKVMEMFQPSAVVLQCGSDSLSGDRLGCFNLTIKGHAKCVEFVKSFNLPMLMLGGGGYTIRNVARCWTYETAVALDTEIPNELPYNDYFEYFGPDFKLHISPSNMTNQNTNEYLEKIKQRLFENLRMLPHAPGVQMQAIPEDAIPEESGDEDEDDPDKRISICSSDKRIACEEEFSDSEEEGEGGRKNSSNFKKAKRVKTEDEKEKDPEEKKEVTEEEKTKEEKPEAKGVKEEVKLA
UniProt O15379: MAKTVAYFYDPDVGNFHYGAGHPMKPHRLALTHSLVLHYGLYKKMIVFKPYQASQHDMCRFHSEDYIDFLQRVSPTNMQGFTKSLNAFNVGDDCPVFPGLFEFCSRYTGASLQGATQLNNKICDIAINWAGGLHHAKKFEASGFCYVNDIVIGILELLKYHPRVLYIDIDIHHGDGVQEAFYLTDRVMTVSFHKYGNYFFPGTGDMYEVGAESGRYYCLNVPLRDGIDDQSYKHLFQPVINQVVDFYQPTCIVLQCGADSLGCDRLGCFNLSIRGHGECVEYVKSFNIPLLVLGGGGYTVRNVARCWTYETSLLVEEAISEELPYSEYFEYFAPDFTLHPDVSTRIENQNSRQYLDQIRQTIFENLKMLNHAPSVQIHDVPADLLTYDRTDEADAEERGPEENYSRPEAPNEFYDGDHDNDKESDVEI
UniProt Q92769: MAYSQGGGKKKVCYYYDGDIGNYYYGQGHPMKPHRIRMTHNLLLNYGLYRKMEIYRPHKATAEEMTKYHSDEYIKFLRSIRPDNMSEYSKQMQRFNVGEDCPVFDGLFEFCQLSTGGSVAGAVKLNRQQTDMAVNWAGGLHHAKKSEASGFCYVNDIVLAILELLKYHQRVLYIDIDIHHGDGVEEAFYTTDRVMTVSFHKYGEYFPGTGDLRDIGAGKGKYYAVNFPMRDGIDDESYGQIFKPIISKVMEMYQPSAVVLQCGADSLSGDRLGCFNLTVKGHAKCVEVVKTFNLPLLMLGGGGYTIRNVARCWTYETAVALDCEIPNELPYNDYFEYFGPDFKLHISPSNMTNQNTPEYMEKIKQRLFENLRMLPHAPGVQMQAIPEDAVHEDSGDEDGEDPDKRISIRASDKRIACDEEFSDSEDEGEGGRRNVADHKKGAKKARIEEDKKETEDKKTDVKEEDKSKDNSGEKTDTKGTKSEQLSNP
UniProt Q9UQL6: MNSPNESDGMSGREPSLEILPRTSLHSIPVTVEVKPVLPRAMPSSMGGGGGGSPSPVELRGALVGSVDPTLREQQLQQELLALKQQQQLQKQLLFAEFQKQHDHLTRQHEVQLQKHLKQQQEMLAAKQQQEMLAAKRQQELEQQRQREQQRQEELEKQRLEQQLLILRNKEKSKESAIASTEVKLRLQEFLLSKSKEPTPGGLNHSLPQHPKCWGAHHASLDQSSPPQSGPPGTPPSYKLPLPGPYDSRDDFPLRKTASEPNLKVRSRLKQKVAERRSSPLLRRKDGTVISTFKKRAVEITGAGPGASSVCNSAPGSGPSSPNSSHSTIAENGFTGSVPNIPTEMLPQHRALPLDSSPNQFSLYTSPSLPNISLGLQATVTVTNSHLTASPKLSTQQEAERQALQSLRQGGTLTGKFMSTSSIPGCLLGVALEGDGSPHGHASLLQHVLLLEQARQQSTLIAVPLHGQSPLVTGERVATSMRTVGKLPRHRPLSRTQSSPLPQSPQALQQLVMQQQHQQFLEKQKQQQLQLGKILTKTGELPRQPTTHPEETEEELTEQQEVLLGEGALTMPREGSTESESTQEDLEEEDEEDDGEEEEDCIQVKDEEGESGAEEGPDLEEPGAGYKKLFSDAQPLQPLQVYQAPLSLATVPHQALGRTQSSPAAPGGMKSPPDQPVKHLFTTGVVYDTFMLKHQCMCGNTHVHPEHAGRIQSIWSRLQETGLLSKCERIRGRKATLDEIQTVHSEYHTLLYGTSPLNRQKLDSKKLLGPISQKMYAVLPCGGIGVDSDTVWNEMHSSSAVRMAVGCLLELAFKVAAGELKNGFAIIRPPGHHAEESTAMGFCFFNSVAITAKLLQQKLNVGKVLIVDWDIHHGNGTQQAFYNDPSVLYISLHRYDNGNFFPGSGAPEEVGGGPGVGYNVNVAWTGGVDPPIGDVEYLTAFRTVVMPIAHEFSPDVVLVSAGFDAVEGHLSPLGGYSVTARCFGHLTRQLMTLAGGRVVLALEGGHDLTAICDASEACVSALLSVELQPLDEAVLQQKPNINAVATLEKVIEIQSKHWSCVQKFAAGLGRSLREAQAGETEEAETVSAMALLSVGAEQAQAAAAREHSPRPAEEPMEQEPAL
UniProt Q8WUI4: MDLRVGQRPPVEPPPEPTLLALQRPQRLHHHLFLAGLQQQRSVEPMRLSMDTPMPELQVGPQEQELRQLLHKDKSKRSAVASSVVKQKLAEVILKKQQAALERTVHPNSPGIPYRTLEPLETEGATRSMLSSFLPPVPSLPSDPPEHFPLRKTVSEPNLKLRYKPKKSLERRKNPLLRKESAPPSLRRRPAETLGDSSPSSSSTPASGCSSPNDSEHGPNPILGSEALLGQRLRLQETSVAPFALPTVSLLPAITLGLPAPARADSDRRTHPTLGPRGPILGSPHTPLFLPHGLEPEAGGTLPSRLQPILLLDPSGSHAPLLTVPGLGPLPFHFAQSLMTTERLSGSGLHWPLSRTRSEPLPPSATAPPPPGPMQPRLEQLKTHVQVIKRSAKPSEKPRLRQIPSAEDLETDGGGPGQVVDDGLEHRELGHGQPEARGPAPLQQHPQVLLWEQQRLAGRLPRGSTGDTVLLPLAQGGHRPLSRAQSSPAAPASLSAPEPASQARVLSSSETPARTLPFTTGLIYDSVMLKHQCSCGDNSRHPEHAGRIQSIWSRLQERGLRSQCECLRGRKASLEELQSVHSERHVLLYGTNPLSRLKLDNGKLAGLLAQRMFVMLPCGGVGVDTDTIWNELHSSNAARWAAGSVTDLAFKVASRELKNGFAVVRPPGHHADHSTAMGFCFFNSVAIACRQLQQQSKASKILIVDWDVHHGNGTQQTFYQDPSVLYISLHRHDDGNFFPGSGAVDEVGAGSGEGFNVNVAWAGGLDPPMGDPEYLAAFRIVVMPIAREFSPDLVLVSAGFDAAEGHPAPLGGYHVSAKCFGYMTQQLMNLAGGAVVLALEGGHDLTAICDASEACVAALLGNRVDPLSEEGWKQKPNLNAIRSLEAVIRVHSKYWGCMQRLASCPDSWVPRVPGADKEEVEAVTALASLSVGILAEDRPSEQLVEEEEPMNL
UniProt Q9BY41: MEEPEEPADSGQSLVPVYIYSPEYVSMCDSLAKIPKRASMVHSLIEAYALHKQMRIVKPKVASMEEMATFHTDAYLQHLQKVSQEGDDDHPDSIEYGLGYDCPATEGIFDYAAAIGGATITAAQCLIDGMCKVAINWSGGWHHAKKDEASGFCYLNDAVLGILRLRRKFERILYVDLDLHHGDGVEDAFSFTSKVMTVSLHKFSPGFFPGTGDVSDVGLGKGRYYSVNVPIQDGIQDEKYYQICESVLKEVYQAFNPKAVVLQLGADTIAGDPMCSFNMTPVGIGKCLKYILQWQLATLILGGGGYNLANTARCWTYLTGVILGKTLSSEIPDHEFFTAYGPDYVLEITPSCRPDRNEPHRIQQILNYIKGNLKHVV
UniProt Q96DB2: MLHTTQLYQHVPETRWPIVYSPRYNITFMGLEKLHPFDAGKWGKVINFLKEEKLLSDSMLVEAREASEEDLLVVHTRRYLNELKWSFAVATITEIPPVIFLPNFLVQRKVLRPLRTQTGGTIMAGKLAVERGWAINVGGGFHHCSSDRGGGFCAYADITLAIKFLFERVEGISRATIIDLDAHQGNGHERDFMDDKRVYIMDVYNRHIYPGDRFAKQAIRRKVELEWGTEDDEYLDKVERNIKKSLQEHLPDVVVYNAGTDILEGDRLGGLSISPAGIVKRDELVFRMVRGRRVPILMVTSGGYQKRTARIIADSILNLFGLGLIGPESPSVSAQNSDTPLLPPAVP
UniProt P56524: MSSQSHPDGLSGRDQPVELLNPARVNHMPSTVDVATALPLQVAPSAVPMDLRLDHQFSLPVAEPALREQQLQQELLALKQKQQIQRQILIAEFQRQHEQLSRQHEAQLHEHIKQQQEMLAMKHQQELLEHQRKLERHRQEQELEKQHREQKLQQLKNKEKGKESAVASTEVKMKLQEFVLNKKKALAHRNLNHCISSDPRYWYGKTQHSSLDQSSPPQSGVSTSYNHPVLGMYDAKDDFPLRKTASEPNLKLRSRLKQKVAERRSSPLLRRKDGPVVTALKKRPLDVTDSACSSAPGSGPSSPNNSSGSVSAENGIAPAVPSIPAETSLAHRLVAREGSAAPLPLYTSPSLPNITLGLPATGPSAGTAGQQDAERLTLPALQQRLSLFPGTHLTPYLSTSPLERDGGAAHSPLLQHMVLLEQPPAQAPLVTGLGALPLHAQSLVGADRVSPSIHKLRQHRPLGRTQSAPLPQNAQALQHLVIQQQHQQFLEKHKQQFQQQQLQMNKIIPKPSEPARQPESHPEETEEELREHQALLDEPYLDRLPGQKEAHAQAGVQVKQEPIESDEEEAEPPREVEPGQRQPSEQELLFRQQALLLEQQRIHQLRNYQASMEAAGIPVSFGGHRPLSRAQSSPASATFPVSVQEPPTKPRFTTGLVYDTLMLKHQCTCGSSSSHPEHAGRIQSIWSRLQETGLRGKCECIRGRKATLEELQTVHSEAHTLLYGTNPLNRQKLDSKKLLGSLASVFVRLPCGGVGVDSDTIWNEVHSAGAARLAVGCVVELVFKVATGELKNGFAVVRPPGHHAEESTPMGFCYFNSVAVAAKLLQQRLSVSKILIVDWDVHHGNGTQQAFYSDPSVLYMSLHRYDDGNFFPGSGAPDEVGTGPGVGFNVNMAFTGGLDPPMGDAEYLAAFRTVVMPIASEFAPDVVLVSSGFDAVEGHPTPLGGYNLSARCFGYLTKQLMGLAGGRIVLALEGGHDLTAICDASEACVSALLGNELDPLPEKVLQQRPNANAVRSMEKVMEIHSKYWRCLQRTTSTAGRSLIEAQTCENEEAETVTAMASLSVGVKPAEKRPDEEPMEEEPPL
UniProt Q969S8: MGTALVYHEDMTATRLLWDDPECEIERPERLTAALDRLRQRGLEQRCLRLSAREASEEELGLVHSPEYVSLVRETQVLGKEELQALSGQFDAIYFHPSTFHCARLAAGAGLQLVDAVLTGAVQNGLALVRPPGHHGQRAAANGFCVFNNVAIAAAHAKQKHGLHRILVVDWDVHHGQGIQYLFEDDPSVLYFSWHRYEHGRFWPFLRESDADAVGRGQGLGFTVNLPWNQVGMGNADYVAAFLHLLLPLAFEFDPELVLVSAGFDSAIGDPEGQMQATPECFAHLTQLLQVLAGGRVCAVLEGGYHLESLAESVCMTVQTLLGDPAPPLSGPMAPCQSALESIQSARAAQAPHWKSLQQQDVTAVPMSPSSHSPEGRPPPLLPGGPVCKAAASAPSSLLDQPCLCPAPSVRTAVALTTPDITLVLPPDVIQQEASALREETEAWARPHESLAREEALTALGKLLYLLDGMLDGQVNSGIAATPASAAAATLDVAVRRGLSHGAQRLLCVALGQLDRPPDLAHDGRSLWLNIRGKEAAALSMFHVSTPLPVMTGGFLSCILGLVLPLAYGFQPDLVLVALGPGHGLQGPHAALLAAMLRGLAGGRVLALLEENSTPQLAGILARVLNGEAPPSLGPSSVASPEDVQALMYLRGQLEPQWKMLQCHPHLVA

Bounds are passed on as bounds.

The target in the experiment is Histone deacetylase (Homo sapiens) (UniProt Q13547+O15379+Q9UBN7+Q92769+Q9UQL6+Q8WUI4+Q9BY41+Q96DB2+P56524+Q9UKV0+Q969S8). Description: Inhibition of HDAC isolated from human HeLa cells at 1 uM by fluorimetric assay. It counts as cell-free.

`O=C(CCCCCCC(=O)Nc1ccc2c(c1)/C(=C/c1ccc[nH]1)C(=O)N2)NO` returned an inhibition above 20%.
Molecule `O=C(CCCCC(=O)Nc1ccc2c(c1)/C(=C/c1ccc[nH]1)C(=O)N2)NO` came in with an inhibition above 20%.

As a reminder, the inhibition is the percentage by which the read-out fell short of the control. High values mean a strong effect, low ones a weak effect.
